This passage reports Ratio IC50 results from ChEMBL document CHEMBL1138496, “Synthesis and evaluation of a novel indoledione class of long chain fatty acid elongase 6 (ELOVL6) inhibitors” (J Med Chem, 2009).

The species entered for one test is Homo sapiens. The test is described as follows: Selectivity ratio, IC50 for human ELOVL3 to IC50 for human ELOVL6.
For the next test, the species on record is Mus musculus. The test is described as follows: Selectivity ratio, IC50 for mouse ELOVL3 to IC50 for mouse ELOVL6.

As for `Cc1[nH]n(-c2ccc(OC(F)(F)F)cc2)c(=O)c1C1(C(F)(F)F)C(=O)N(c2ccccc2)C2=C1C(=O)CC(C)(C)C2` (configuration not stated), the Ratio IC50 was 74 in the test filed under Homo sapiens and 6 in the test listed under Mus musculus.
